IC50 data for 21 compounds are collected here from patent US20230338337A1, “BIOMARKERS FOR CANCER THERAPY USING MDM2 ANTAGONISTS” (OTSUKA PHARMACEUTICAL CO., LTD., priority 2019, published 2023).

Sequences of proteins named here, by UniProt entry; tags and fusion partners are left off.
UniProt Q00987, whole entry: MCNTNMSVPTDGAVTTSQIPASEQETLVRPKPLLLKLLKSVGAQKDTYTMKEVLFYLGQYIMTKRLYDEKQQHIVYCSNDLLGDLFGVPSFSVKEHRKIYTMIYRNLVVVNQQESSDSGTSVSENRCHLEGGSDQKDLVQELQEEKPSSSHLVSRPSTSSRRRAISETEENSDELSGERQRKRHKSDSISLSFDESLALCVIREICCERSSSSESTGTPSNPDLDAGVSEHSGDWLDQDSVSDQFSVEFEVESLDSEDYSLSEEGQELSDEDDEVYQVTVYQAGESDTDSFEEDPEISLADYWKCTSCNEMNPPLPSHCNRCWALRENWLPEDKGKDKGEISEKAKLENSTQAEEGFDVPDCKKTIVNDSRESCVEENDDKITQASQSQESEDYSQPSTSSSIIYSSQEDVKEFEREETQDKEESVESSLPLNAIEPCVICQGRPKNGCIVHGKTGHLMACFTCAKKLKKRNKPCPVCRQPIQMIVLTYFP

The first assay deals with MDM2-p53 interaction (in vitro translated MDM2) (Homo sapiens (Human), UniProt Q00987). Nature of the assay: MDM2-p53 interaction 96-well plate binding assay (ELISA). The note with it: read-out: MDM2 IC50.
Turning to `CC(C)(O)c1ccc2c(c1)C(=O)N(Cc1ccc(Cl)cc1)[C@@]2(OCC1(C(=O)O)CC1)c1ccc(Cl)cc1` [Example 5, 1-({[(1R)-1-(4-chlorophenyl)-2-[(4-chlorophenyl)methyl]-5-(2-hydroxypropan-2-yl)-3-oxo-2,3-dihydro-1H-isoindol-1-yl]oxy}methyl)cyclopropane-1-carboxylic acid], the IC50 was found to be 140 nM.

Another assay relates to SJSA-1. Nature of the assay: Protocol B: CellTiter-Glo cell viability assay. The note with it: Homo sapiens, SJSA-1, 72 h, read-out: SJSA1 IC50 (μM) (Protocol B), SJSA-1, CellTiter-Glo, 72 hrs. On the technique in general: Cellular ATP, detected with luciferase, serves as a proxy for viable cell number.
For the compound `CC[C@@](O)(c1cc(F)c2c(c1)C(=O)N(Cc1ccc(C#N)cc1)[C@@]2(O[C@H]1C[C@@H](O)C1)c1ccc(Cl)cc1)C1CCN(C)CC1` [Example 130, 4-{[(1R)-1-(4-chlorophenyl)-7-fluoro-5-[(1S)-1-hydroxy-1-(1-methylpiperidin-4-yl)propyl]-3-oxo-1-[cis-3-hydroxycyclobutoxy]-2,3-dihydro-1H-isoindol-2-yl]methyl}benzonitrile], the IC50 turned out to be 0.23 µM.

Staying with this assay, now noted: read-out: SJSA1 IC50 (μM) (Protocol B); Protocol B.
Turning to “6-{[(1R)-1-(4-Chlorophenyl)-7-fluoro-5-(2-hydroxybut-3-en-2-yl)-1-{[1-(hydroxymethyl)cyclopropyl]methoxy}-3-oxo-2,3-dihydro-1H-isoindol-2-yl]methyl}pyridine-3-carbonitrile [Example 412]”, the IC50 came to 0.27 µM.

“6-{[(1R)-1-(4-Chlorophenyl)-7-fluoro-5-(2-hydroxybut-3-en-2-yl)-1-{[1-(hydroxymethyl)cyclopropyl]methoxy}-3-oxo-2,3-dihydro-1H-isoindol-2-yl]methyl}pyridine-3-carbonitrile [Example 413]”: the IC50 stood at 0.24 µM.

On to “6-{[(1R)-1-(4-chlorophenyl)-7-fluoro-1-({1-[hydroxy(^2H2)methyl]cyclopropyl}(^2H2)methoxy)-5-[1-hydroxy-1-(1-methyl-1H-pyrazol-4-yl)ethyl]-3-oxo-2,3-dihydro-1H-isoindol-2-yl]methyl}pyridine-3-carbonitrile [Example 353]”, for which the IC50 is 0.27 µM.

Turning to “6-{[(1R)-1-(4-chlorophenyl)-7-fluoro-1-{[1-(hydroxymethyl)cyclopropyl]methoxy}-3-oxo-5-(1,1,1-trifluoro-2-hydroxypropan-2-yl)-2,3-dihydro-1H-isoindol-2-yl]methyl}pyridine-3-carbonitrile [Example 416]”, the IC50 was found to be 0.15 µM.

For the compound “6-{[(1R)-1-(4-chlorophenyl)-7-fluoro-1-{[1-(hydroxymethyl)cyclopropyl]methoxy}-3-oxo-5-(1,1,1-trifluoro-2-hydroxypropan-2-yl)-2,3-dihydro-1H-isoindol-2-yl]methyl}pyridine-3-carbonitrile [Example 417]”, the IC50 was found to be 0.41 µM.

“6-{[(1R)-1-(4-chlorophenyl)-7-fluoro-5-(2-hydroxybutan-2-yl)-1-{[1-(hydroxymethyl)cyclopropyl]methoxy}-3-oxo-2,3-dihydro-1H-isoindol-2-yl]methyl}pyridine-3-carbonitrile [Example 410]”: the IC50 was determined as 0.19 µM.

As to “6-{[(1R)-1-(4-chlorophenyl)-7-fluoro-5-(2-hydroxybutan-2-yl)-1-{[1-(hydroxymethyl)cyclopropyl]methoxy}-3-oxo-2,3-dihydro-1H-isoindol-2-yl]methyl}pyridine-3-carbonitrile [Example 411]”, the IC50 amounted to 0.077 µM.

As to “6-{[(1R)-1-(4-chlorophenyl)-7-fluoro-5-[1-hydroxy-1-(1-methyl-1H-pyrazol-4-yl)ethyl]-3-oxo-1-[(3S)-oxolan-3-yloxy]-2,3-dihydro-1H-isoindol-2-yl]methyl}pyridine-3-carbonitrile [Example 218]”, the IC50 turned out to be 0.43 µM.

“6-{[(1R)-1-(4-chlorophenyl)-7-fluoro-5-[1-hydroxy-1-(1-methyl-1H-pyrazol-4-yl)ethyl]-3-oxo-1-[(3S)-oxolan-3-yloxy]-2,3-dihydro-1H-isoindol-2-yl]methyl}pyridine-3-carbonitrile [Example 344]”: the IC50 was 1.9 µM.

“6-{[(1R)-1-(4-chlorophenyl)-7-fluoro-5-[hydroxy(1-methyl-1H-pyrazol-4-yl)methyl]-3-oxo-1-[(3S)-oxolan-3-yloxy]-2,3-dihydro-1H-isoindol-2-yl]methyl}pyridine-3-carbonitrile [Example 357]”: the IC50 worked out at 0.3 µM.

With “6-{[(1R)-1-(4-chlorophenyl)-7-fluoro-5-[hydroxy(1-methyl-1H-pyrazol-4-yl)methyl]-3-oxo-1-[(3S)-oxolan-3-yloxy]-2,3-dihydro-1H-isoindol-2-yl]methyl}pyridine-3-carbonitrile [Example 360]”, the IC50 worked out at 0.74 µM.

With `CCC(O)(c1cc(F)c2c(c1)C(=O)N(Cc1ncc(C#N)cn1)[C@@]2(O[C@H]1CCOC1)c1ccc(Cl)cc1)c1cn(C)cn1` (stereo partly drawn) [Example 370, 2-{[(1R)-1-(4-chlorophenyl)-7-fluoro-5-[1-hydroxy-1-(1-methyl-1H-imidazol-4-yl)propyl]-3-oxo-1-[(3S)-oxolan-3-yloxy]-2,3-dihydro-1H-isoindol-2-yl]methyl}pyrimidine-5-carbonitrile], the IC50 came to 3.5 µM.

For `CC(O)(c1cc(F)c2c(c1)C(=O)N(Cc1ncc(Cl)cn1)[C@@]2(OCC1(CO)CC1)c1ccc(Cl)cc1)[C@H]1CC[C@H](O)CC1` (stereo partly drawn) [Example 402, (3R)-3-(4-chlorophenyl)-2-[(5-chloropyrimidin-2-yl)methyl]-4-fluoro-6-{1-hydroxy-1-[trans-4-hydroxycyclohexyl]ethyl}-3-{[1-(hydroxymethyl)cyclopropyl]methoxy}-2,3-dihydro-1H-isoindol-1-one], the IC50 worked out at 0.21 µM.

Regarding `[2H]C([2H])([2H])C1(C([2H])([2H])O[C@]2(c3ccc(Cl)cc3)c3c(F)cc(C(O)(CC)c4cn(C)cn4)cc3C(=O)N2Cc2ccc(C#N)cn2)CC1` (stereo partly drawn) [Example 440, 6-{[(1R)-1-(4-chlorophenyl)-7-fluoro-1-({1-[hydroxy(^2H2)methyl]cyclopropyl}(^2H2)methoxy)-5-[1-hydroxy-1-(1-methyl-1H-imidazol-4-yl)propyl]-3-oxo-2,3-dihydro-1H-isoindol-2-yl]methyl}pyridine-3-carbonitrile], the IC50 worked out at 1.9 µM.

As to `CCC(O)(c1cc(F)c2c(c1)C(=O)N(Cc1ccc(C#N)cn1)[C@@]2(O[C@H]1CCOC1)c1ccc(Cl)cc1)C1(F)CCOCC1` (stereo partly drawn) [Example 445, 6-{[(1R)-1-(4-chlorophenyl)-7-fluoro-5-[1-(4-fluorooxan-4-yl)-1-hydroxypropyl]-3-oxo-1-[(3S)-oxolan-3-yloxy]-2,3-dihydro-1H-isoindol-2-yl]methyl}pyridine-3-carbonitrile], the IC50 was found to be 3.3 µM.

`CCC(O)(CN1CCN(C)CC1)c1cc(F)c2c(c1)C(=O)N(Cc1ncc(Cl)cn1)[C@@]2(O[C@H]1CCOC1)c1ccc(Cl)cc1` (stereo partly drawn) [Example 523, (3R)-3-(4-chlorophenyl)-2-[(5-chloropyrimidin-2-yl)methyl]-4-fluoro-6-[2-hydroxy-1-(4-methylpiperazin-1-yl)butan-2-yl]-3-[(3S)-oxolan-3-yloxy]-2,3-dihydro-1H-isoindol-1-one]: the IC50 stood at 1.5 µM.

A further assay relates to SJSA-1 (p53 wild-type, MDM2 amplified osteosarcoma). Nature of the assay: Protocol A: SRB growth inhibition assay. The note with it: Homo sapiens, SJSA-1, read-out: SJSA-1 IC50 (μM) (Protocol A).
Turning to `CCC(O)(c1cc(F)c2c(c1)C(=O)N(Cc1ncc(Cl)cc1O)[C@@]2(OCCO)c1ccc(Cl)cc1)c1cn(C)cn1` (stereo partly drawn) [Example 443, (3R)-2-[(5-chloro-3-hydroxypyridin-2-yl)methyl]-3-(4-chlorophenyl)-4-fluoro-6-[1-hydroxy-1-(1-methyl-1H-imidazol-4-yl)propyl]-3-(2-hydroxyethoxy)-2,3-dihydro-1H-isoindol-1-one], the IC50 is 0.11 µM.

Take `CCC(O)(c1cc(F)c2c(c1)C(=O)N(Cc1ccc(C#N)cn1)[C@@]2(O[C@H]1CCOC1)c1ccc(Cl)cc1)C1(F)CCOCC1` (stereo partly drawn) [Example 446, 6-{[(1R)-1-(4-chlorophenyl)-7-fluoro-5-[1-(4-fluorooxan-4-yl)-1-hydroxypropyl]-3-oxo-1-[(3S)-oxolan-3-yloxy]-2,3-dihydro-1H-isoindol-2-yl]methyl}pyridine-3-carbonitrile]: the IC50 came to 0.018 µM.

The test system of another assay is MESO-7T mesothelioma cell line. Nature of the assay: 72-hour Alamar Blue proliferation assay. The format is cell-based. The note with it: Homo sapiens, read-out: Mean Compound 1 Proliferation IC50 (μM), cell line MESO-7T. As for the experimental part: (§1) For all cell lines the number of viable cells was determined by measuring the conversion of Rezasurin (Alamar Blue) to Resorufin in response to mitochondrial activity of the viable cells. Alamar Blue™ (AbD Serotec/Bio-Rad, Hercules, CA, USA) was added to 10% of the well volume (20 μl/well) towards the end of the treatment period and incubated for a further 8-24 h. […] Each well was calculated as percentage of the mean DMSO control.
In general terms: The colour change of resazurin is a common sign of viable cells or microbes.
On to `CC[C@@](O)(c1cc(F)c2c(c1)C(=O)N([C@H](c1ccc(Cl)cc1)[C@H](C)C(=O)O)[C@@]2(OC)c1ccc(Cl)cc1)C1CCOCC1` [Compound 1, (2S,3S)-3-(4-chlorophenyl)-3-[(1R)-1-(4-chlorophenyl)-7-fluoro-5-[(1S)-1-hydroxy-1-(oxan-4-yl)propyl]-1-methoxy-3-oxo-2,3-dihydro-1H-isoindol-2-yl]-2-methylpropanoic acid], for which the IC50 was 0.36 µM.

A further assay concerns #18 mesothelioma cell line. Nature of the assay: 72-hour Alamar Blue proliferation assay. As to conditions: Homo sapiens, read-out: Mean Compound 1 Proliferation IC50 (μM), cell line #18. The format is cell-based. As for the experimental part: as §1
In the case of `CC[C@@](O)(c1cc(F)c2c(c1)C(=O)N([C@H](c1ccc(Cl)cc1)[C@H](C)C(=O)O)[C@@]2(OC)c1ccc(Cl)cc1)C1CCOCC1` [Compound 1, (2S,3S)-3-(4-chlorophenyl)-3-[(1R)-1-(4-chlorophenyl)-7-fluoro-5-[(1S)-1-hydroxy-1-(oxan-4-yl)propyl]-1-methoxy-3-oxo-2,3-dihydro-1H-isoindol-2-yl]-2-methylpropanoic acid], the IC50 came out at 0.11 µM.

A further assay deals with #26 mesothelioma cell line. The assay is described as follows: 72-hour Alamar Blue proliferation assay. The format is cell-based. The note with it: Homo sapiens, read-out: Mean Compound 1 Proliferation IC50 (μM), cell line #26. As for the experimental part: as §1
As to `CC[C@@](O)(c1cc(F)c2c(c1)C(=O)N([C@H](c1ccc(Cl)cc1)[C@H](C)C(=O)O)[C@@]2(OC)c1ccc(Cl)cc1)C1CCOCC1` [Compound 1, (2S,3S)-3-(4-chlorophenyl)-3-[(1R)-1-(4-chlorophenyl)-7-fluoro-5-[(1S)-1-hydroxy-1-(oxan-4-yl)propyl]-1-methoxy-3-oxo-2,3-dihydro-1H-isoindol-2-yl]-2-methylpropanoic acid], the IC50 came to 0.36 µM.
